# The list shows a part of the results, in another mix than the full data. Calls of active or inactive are those of the source. Cut-off read from the data, not from the text of the source: active = activation above about 65%; inactive = the rest.
# The chains behind the UniProt entries cited, without tags or fusion partners. Where a name states a change or a piece, a line headed by the entry shows the natural chain unless it says otherwise.
# UniProt P04062: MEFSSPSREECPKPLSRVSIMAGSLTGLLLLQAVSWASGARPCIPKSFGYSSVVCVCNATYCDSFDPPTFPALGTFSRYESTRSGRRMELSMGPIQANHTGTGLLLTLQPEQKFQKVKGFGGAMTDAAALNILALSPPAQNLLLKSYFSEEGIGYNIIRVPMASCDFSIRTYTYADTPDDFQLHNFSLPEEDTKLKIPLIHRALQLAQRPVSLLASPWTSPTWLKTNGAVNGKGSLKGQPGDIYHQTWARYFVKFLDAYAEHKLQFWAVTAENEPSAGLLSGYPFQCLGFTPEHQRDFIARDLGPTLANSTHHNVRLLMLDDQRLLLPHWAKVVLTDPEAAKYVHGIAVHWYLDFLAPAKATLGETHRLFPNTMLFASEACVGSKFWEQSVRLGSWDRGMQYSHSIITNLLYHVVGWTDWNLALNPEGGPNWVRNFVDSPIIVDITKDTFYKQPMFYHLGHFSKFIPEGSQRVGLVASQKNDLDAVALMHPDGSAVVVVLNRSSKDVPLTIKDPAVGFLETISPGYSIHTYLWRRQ
# Target: Lysosomal acid glucosylceramidase (Homo sapiens) (UniProt P04062)
# Experiment: raising glucocerebrosidase activity, Gaucher cells – primary screen (AID 784);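 note: 0% = vehicle wells and 100% = positive control wells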
# Conditions: L444P Gaucher fibroblasts, 4-MU-glucoside fluorescence, 3 days; at 10 µM; stronger effect = higher value
row,SMILES,activation
1,Clc1n[nH]nc1-c1nn[nH][15n]1,inactive: 1.06%
2,O=P1(Nc2ccccn2)COc2ccccc2OC1,inactive: 11.1%
3,O=P1(Nc2ccc(Br)cn2)COc2ccccc2OC1,inactive: 6.36%
4,O=P1(Nc2ncccn2)COc2ccccc2OC1,inactive: 6.44%
5,O=C(OC1CN2CCC1CC2)C12CC3CC(CC(C3)C1)C2 (centres undefined),inactive: -22.1%
6,O=C(COc1ccccc1)OC1CN2CCC1CC2 (centres undefined),inactive: -24%
7,CCc1nc2c(n1)c1c(non1O)c1c2no[n+]1[O-],inactive: -44.7%
8,O=P1(Nc2nc3ccc(Cl)cc3s2)COc2ccccc2O1 (centres undefined),inactive: -15.5%
9,c1nnnn1CCn1cnnn1,inactive: 11.9%

# From PubChem BioAssay AID784 (The Scripps Research Institute Molecular Screening Center, 2007)
